Reference: patent publication US20070282007A1, “TREATMENT OF PAIN DISORDERS WITH trans 4-(3,4-DICHLOROPHENYL)-1,2,3,4-TETRAHYDRO-1-NAPHTHALENAMINE AND ITS FORMAMIDE” (SEPRACOR INC., priority 2006, published 2007)
pIC50: −log10 of the molar value.

By UniProt entry, the sequences of proteins in these tests, tags left out.
UniProt P23977, whole entry: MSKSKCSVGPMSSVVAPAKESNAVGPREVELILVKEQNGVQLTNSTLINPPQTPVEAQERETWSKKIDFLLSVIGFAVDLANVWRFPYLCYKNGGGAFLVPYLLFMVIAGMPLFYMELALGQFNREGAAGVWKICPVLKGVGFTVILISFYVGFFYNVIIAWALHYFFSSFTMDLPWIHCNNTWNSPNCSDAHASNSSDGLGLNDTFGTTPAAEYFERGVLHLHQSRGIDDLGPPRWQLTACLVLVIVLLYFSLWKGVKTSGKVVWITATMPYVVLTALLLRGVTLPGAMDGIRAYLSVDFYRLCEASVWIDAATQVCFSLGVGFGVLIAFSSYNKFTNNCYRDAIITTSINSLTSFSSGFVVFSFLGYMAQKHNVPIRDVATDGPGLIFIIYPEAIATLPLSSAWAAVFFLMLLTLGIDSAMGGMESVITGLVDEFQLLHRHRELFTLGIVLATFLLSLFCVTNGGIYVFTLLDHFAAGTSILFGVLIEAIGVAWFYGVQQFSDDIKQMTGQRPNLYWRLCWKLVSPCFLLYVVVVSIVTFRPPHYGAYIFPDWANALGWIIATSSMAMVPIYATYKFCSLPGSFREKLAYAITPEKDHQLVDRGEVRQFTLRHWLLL

Target: Dopamine (DA) uptake (Rattus norvegicus, UniProt P23977)
Assay: biochemical

`CN(C)CCCC1(c2ccc(F)cc2)OCc2cc(C#N)ccc21` (stereo not shown) [Citalopram] was tested, and the pIC50 was 4.77.
